Assay results published in ChEMBL document CHEMBL1781926, “Synthesis of 1-naphtylpiperazine derivatives as serotoninergic ligands and their evaluation as antiproliferative agents” (Eur J Med Chem, 2011).

Test system: PC-3
Assay: Antiproliferative activity against human PC3 cells assessed as growth inhibition after 96 hrs by SRB assay
Format: functional, cell-based

In the case of `O=c1c2ccccc2nnn1OCCCN1CCN(c2cccc3ccccc23)CC1`, the “growth inhibition (GI)” value is reported as “Dose-dependent effect”.

With `N#C/N=C(\NCCCN1CCN(c2cccc3ccccc23)CC1)c1ccccn1` the “growth inhibition (GI)” value was “Dose-dependent effect”.
